# The entries are a selection whose mix differs from that of the whole data set. Records with an inconclusive call do not appear. Some structures show a salt or complex split into parts, the way the source records it. Activity calls are given as the source filed them. Calls come from the whole dose curve; as a rule, active = well fitted inhibition curve with a large enough effect; inconclusive = small, poorly fitted or top-dose-only effect, or effect the other way, or another doubt; inactive = no such curve, though single readings can be large or run the other way.
# Target: Lysosomal acid glucosylceramidase (Homo sapiens) (UniProt P04062)
# Assay: qHTS Assay for Inhibitors and Activators of N370S glucocerebrosidase as a Potential Chaperone Treatment of Gaucher Disease;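 note: 0% = full enzyme activity and -100% = no enzyme basal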
# Conditions: N370S GC spleen homogenate, 4MU-glucoside fluorescence; at 59.4 µM (top of the series)
# Source text: NIH Chemical Genomics Center [NCGC]
# NIH Molecular Libraries Probe Production Centers Network [MLPCN]
# Assay Submitter (PI): Wei Zheng
# Glucocerebrosidase (GC) catalyzes the hydrolysis of beta-glucocerebroside to glucose and ceramide in lysosomes. Mutations in the glucocerebrosidase gene result in Gaucher disease, an autosomal recessive lysosomal storage disorder. Many of the mutations encountered in patients with Gaucher disease are missense alterations that may cause misfolding, decreased stability and/or mistrafficking of this lysosomal protein. […] These inhibitors include iminosugar analogs and three non-iminosugar inhibitors identified from a previous HTS of 62,000 compounds with the wild type recombinant enzyme. However, the enhancement of enzyme activity by the chaperone action of an enzyme inhibitor must be balanced against the direct inhibition of the enzyme. An enzyme activator could also function as a chaperone by binding to the enzyme and helping to correct its misfolding and mistrafficking. While activators for GC have not yet been identified, they may have better therapeutic potential than inhibitors. Therefore the discovery and development of chemical activators may provide a new strategy for the chaperone therapy.
# We have optimized a new assay using N370S mutant GC derived from the spleen of a Gaucher patient. […] In addition, the MLPCN compound library has expanded, which increases the chance of finding new and better probes.
# NCGC Assay Protocol Summary:
# This is a fluorogenic enzyme assay with 4-methylumbelliferyl-beta-D-glucopyranoside as the substrate and N370S glucocerebrosidase from human spleen homogenate as the enzyme preparation. Upon the hydrolysis of this fluorogenic substrate, the resulting product, […] which can be detected by a standard fluorescence plate reader. Data were normalized to the controls for basal activity (without enzyme) and 100% activity (with enzyme). The AC50 values were determined from concentration-response data modeled with the standard Hill equation.
# Assay buffer: 50 mM citric acid (titrated with potassium phosphate to pH 5.0), 100 mM potassium chloride, 10 mM sodium chloride, 1 mM magnesium chloride, 0.01% Tween-20.
# 1536-well assay protocol:
# (1) Add 2 ul/well of spleen homogenate (27 ug final)
# (2) Add 23 nL compounds in DMSO solution. The final titration was 0.5 nM to 58 uM.
# (3) Add 2 ul of substrate (1 mM final)
# (4) Incubate at 37C for 40 min.
# (5) Add 2 ul stop solution (1M NaOH and 1M Glycine mixture, pH 10)
# (6) Detect the assay plate in a ViewLux plate reader (PerkinElmer) with Ex=365 nm and Em=440nm.
# Keywords: Glucocerebrosidase, beta-glucosidase, Gaucher Disease, pharmacological chaperone, chaperone therapy, high throughput screening, glucocerebrosidase inhibitor, MLSMR, MLSCN, NIH Roadmap, qHTS and NCGC
row,SMILES,"activity change, negative = inhibition"
1,O=C(NCC1(N2CCCCC2)CCCCC1)c1ccc(Cl)nc1,inactive: -9.06%
2,Cc1cc(C)cc(N(C(=O)c2ccccc2)C2CCN(C(=O)OC(C)(C)C)CC2)c1,inactive: -2.02%
3,O=C(NCC1(N2CCOCC2)CCCCC1)c1cc2ccccc2o1,inactive: -2.65%
4,O=C(OC1CN2CCC1CC2)C1c2ccccc2Oc2ccccc21 (stereo unspecified),inactive: -21.8%
5,N#CC1(Nc2ccccc2)CCN(Cc2ccccc2)CC1,inactive: -6.98%
6,CCOC(=O)N1CCC(Nc2ccc(OC)cc2)CC1,inactive: 2.79%
7,COc1ccc(C(=O)NCC2(N3CCCCC3)CCCCC2)cc1,inactive: -11.4%
8,COc1ccc(C(=O)NCC2(N3CCCCC3)CCCCC2)c(OC)c1OC,inactive: -11.7%
9,CC(C)(C)OC(=O)N1CCC(N(C(=O)c2ccccc2)c2ccc(F)cc2)CC1,inactive: 1.61%
10,O=C(NCC1(N2CCCCC2)CCCCC1)c1ccc(=O)[nH]c1,inactive: -7.18%
11,O=C(NCC1(N2CCCCC2)CCCCC1)c1cccs1,inactive: -10.6%
12,CSc1ccccc1C(=O)NCC1(N2CCCCC2)CCCCC1,inactive: -9.66%
13,COc1cc(C(=O)NCC2(N(C)C)CCCCC2)ccc1OC(F)F,inactive: 0.277%
14,CCOC(=O)N1CCC(Nc2cccc(C)c2)CC1,inactive: 3.86%
15,CCOc1ccc(C)cc1CN(CCCl)CCCl,inactive: -17.1%
16,O=C(NCC1(N2CCCCC2)CCCCC1)c1ccc(F)cc1,inactive: -4.94%
17,CCCCOc1ccc(C(=O)NCC2(N3CCOCC3)CCCCC2)cc1,inactive: -3.13%
18,CCOC(=O)N1CCC(Nc2ccc(F)cc2)CC1,inactive: -6.93%
19,O=[N+]([O-])c1cc([N+](=O)[O-])c(NCC2CCS(=O)(=O)C2)c([N+](=O)[O-])c1 (stereo unspecified),inactive: -23.9%
20,O=C(NCC1(N2CCCCC2)CCCCC1)c1cccc(C(F)(F)F)c1,inactive: 2.91%
21,O=C(NCC1(N2CCOCC2)CCCCC1)c1cc(=O)[nH]c2ccccc12,inactive: -6.98%
22,COc1cc(C(=O)NCC2(N3CCCCC3)CCCCC2)ccc1OC(F)F,inactive: -3.3%

row,SMILES,"activity change, negative = inhibition"
1,COc1ccc(NC2CCN(C(=O)OC(C)(C)C)CC2)cc1,inactive: -4.51%
2,CC(C)c1ccc(C(=O)NCC2(N3CCOCC3)CCCCC2)cc1,inactive: -2.4%
3,CN1CCN(CCOC(=O)C(O)(c2ccccc2)c2ccccc2)CC1,inactive: -13.5%
4,O=C(NCC1(N2CCCCC2)CCCCC1)c1ccc(OC(F)F)cc1,inactive: -9.94%
5,CCN1CCC(Nc2ccc(Cl)cc2)CC1,inactive: -4.46%
6,N#CC1(Nc2ccccc2)CCN(CCc2ccccc2)CC1,inactive: -2.42%
7,CSc1ccc(C(=O)NCC2(N3CCOCC3)CCCCC2)cc1,inactive: -14.5%
8,O=C(NCC1(N2CCCCC2)CCCCC1)c1cccc([N+](=O)[O-])c1,inactive: 4.36%
9,O=C(OC1CN2CCC1CC2)c1ccc([N+](=O)[O-])cc1 (stereo unspecified),inactive: 3.26%
10,COc1ccc2c(c1O)-c1c(O)c(OC)cc3c1[C@H](C2)[N+](C)(C)CC3.O=[N+]([O-])c1cc([N+](=O)[O-])c([O-])c([N+](=O)[O-])c1[O-],inactive: -13.2%
11,CCCOc1ccc(C(=O)NCC2(N(C)C)CCCCC2)cc1OC,inactive: 0.894%
12,CC(C)c1ccc(NC2CCN(C(=O)OC(C)(C)C)CC2)cc1,inactive: 8.34%
13,COc1ccc(CN(CCCl)CCCl)cc1Cl,inactive: 22.3%
14,CN(C)c1cccc(C(=O)NCC2(N3CCCCC3)CCCCC2)c1,inactive: -2.72%
15,O=[N+]([O-])c1cc([N+](=O)[O-])c(OC2CCCCC2O)c([N+](=O)[O-])c1 (stereo unspecified),inactive: -12.5%
16,COc1cc(OC)c(C(=O)NCC2(N(C)C)CCCCC2)cc1OC,inactive: 1.34%
17,CCOP(=O)(Cl)Cl,inactive: 1.08%
18,CCOC(=O)N1CCC(Nc2ccc(C)cc2)CC1,inactive: 1.73%
19,N/C(=N\O)c1c(N)no[n+]1[O-],inactive: 4.94%
20,O=C(OC1CN2CCC1CC2)C1c2ccccc2C=Cc2ccccc21 (stereo unspecified),inactive: -17.4%
21,CCc1cc(C(=O)NCC2(N3CCCCC3)CCCCC2)sc1C,inactive: -9.19%
22,O=C(O)c1cccc(Nc2c([N+](=O)[O-])cc([N+](=O)[O-])cc2[N+](=O)[O-])c1,inactive: -23.5%

row,SMILES,"activity change, negative = inhibition"
1,COc1ccc(C(=O)NCC2(N3CCOCC3)CCCCC2)cc1OC,inactive: 9.91%
2,ClCCOP(OCCCl)OCCCl,inactive: -1.61%
3,CN(C)C1(CNC(=O)c2cccc(C#N)c2)CCCCC1,inactive: -10.3%
4,c1ccc(CN2CCC(Nc3ccccc3)CC2)cc1,inactive: -1.46%
5,CCCN1CCC(Nc2cc(OC)cc(OC)c2)CC1,inactive: -19.4%
6,N#Cc1ccc(C(=O)NCC2(N3CCCCC3)CCCCC2)cc1,inactive: -14.7%
7,CC(C)(C)OC(=O)N1CCC(N(C(=O)c2ccccc2)c2ccc(Cl)cc2)CC1,inactive: -11.8%
8,CCOC(=O)C(CC)C1=NC(C)(C)Cc2ccccc21.O=[N+]([O-])c1cc([N+](=O)[O-])c(O)c([N+](=O)[O-])c1 (stereo unspecified),inactive: -11.5%
9,CCN1CCC(Nc2cccc(F)c2)CC1,inactive: 0.776%
10,CN(C)c1ccc(C(=O)NCC2(N3CCCCC3)CCCCC2)cc1,inactive: 6.87%
11,COc1cc(OC)cc(C(=O)NCC2(N3CCCCC3)CCCCC2)c1,inactive: -0.432%
12,Cc1ccc(C(=O)NCC2(N3CCCCC3)CCCCC2)o1,inactive: -20%
13,Fc1ccccc1NC1CCN(Cc2ccccc2)CC1,inactive: -2.77%
14,COc1cccc(C(=O)N(c2cc(C)cc(C)c2)C2CCN(C(=O)OC(C)(C)C)CC2)c1,inactive: -14.7%
15,COc1cc(OC)cc(C(=O)NCC2(N3CCOCC3)CCCCC2)c1,inactive: 1.58%
16,CCC(CO)(C(=O)OC1CN2CCC1CC2)c1ccccc1 (stereo unspecified),inactive: -2.13%
17,CN1CCC(Nc2ccc(Cl)cc2)CC1,inactive: -15.9%
18,CCCOc1ccc(C)cc1CN(CCCl)CCCl,inactive: -16.7%
19,CCOc1ncccc1C(=O)NCC1(N2CCOCC2)CCCCC1,inactive: 2.03%
20,CC(C)(C)OC(=O)N1CCC(Nc2ccccc2)CC1,inactive: 0.0863%
21,O=C(O)C1(Nc2ccccc2)CCN(Cc2ccccc2)CC1,inactive: -24.5%
22,CCCOc1ccc(C(=O)NCC2(N(C)C)CCCCC2)cc1,inactive: -6.76%

# Source: PubChem BioAssay AID2101 (National Center for Advancing Translational Sciences (NCATS), 2009)
